## Yeast mating assay 2: variants of the scFv Ab-95

Reference: Engelhart et al. 2022, doi:10.1038/s41597-022-01779-4. File: FLAb, binding data.

Antigen: PDVDLGDISGINAS, a 14-residue peptide of the SARS-CoV-2 spike HR2 region.

The variants keep the heavy chain, the linker and the frameworks of Ab-95 (scFv order VH, a 15-residue (Gly4Ser)3 linker, VL).
VH: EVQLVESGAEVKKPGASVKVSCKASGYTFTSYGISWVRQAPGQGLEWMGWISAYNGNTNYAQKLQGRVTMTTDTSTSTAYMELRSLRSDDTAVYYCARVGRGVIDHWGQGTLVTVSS
VL: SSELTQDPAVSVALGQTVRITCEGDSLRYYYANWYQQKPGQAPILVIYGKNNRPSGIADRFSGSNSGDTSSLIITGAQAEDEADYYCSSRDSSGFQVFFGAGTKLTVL

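In library AAYL52, one, two or three CDR residues were substituted; doubles and triples were drawn at random. The scFvs were displayed on barcoded MATa yeast, the peptide on MATalpha yeast. The frequency of each diploid, read from paired DNA barcodes, reflects how well the two displayed proteins bind. Each replicate has its own calibration line, from reference interactions of the BCL2 family. Mating was done three times.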

Substitutions are numbered in sequence along the VL above, starting at 1 (not Kabat). Affinities are written as log10 Kd with Kd in nM; a lower number is a better binder. Where no diploid with the target was found in that replicate, the entry reads "nd": below detection, most likely a poor binder, though not proof of it. Parent in this assay: reference entry 2.31, copy in this library 2.25. Three control strains display no target. For library AAYL52, 28% of the pairings with them gave a signal, with a median of 3.91 and one signal in twenty below 2.90, so weak values seen in few replicates may be background. For each scFv, signals with the empty controls are counted beside the result, with their mean in brackets.

changes | log10 Kd, replicates | control signals
L27M R90M S93G | 4.51 / 4.14 / 3.80 | 4/9 (4.63)
G24P A32N S89E | nd / 5.54 / nd | 3/9 (4.39)
Y29N S89H | 3.17 / 5.21 / 3.06 | 3/9 (3.50)
Y29V Q96W V97N | 4.28 / nd / nd | 1/9 (3.67)
S26N G49D S88M | 2.51 / 2.31 / 2.17 | 1/9 (4.27)
A32W N51P D91G | 4.18 / nd / nd | 3/9 (3.90)
L27A G49W S93G | nd / 3.88 / nd | 2/9 (3.62)
S89A R90I S92H | 4.91 / 3.51 / 2.27 | 1/9 (3.46)
D25R D91K F98N | nd / 3.90 / nd | 2/9 (4.19)
Y31Q G49K N51T | 3.19 / 3.47 / nd | 4/9 (4.00)
S26H R53H D91Y | nd / 2.65 / nd | 2/9 (4.40)
S26W R28M R53D | 4.33 / 3.56 / nd | 2/9 (3.05)
Y29N Q96H F98V | 1.76 / 1.98 / 1.14 | 0/9
G24Q A32F N51Y | nd / nd / nd | 0/9
L27I A32N G94R | 3.70 / nd / 2.92 | 3/9 (4.00)
Y31M R53T S88L | nd / nd / nd | 1/9 (4.44)
L27I Y30C | 2.83 / 3.01 / 2.63 | 7/9 (3.71)
Y29A S55Q G94N | 2.21 / 2.05 / 1.75 | 5/9 (3.68)
E23I Y29V N51A | nd / nd / nd | 2/9 (4.61)
D25I S89H V97M | 2.59 / nd / 2.77 | 0/9
D25H N51F Q96L | nd / nd / nd | 0/9
K50N R90N | 2.42 / 2.29 / 1.94 | 4/9 (3.76)
G24P Y31S F95R | 2.59 / 2.54 / 2.45 | 5/9 (4.05)
S26Q N33A S55K | nd / 3.92 / nd | 1/9 (3.23)
Y29F S89H D91R | 3.79 / 2.58 / 2.93 | 3/9 (3.47)
G49D N51F F98A | 3.29 / 3.84 / nd | 4/9 (3.76)
S88T D91R F95Y | 2.40 / 1.96 / 1.89 | 2/9 (4.63)
N52L S55Q | 2.31 / 2.21 / 1.88 | 3/9 (3.93)
L27D Y31V N33W | 1.59 / 1.99 / 1.81 | 3/9 (3.41)
D25T S26P S88A | 2.79 / 2.90 / 2.89 | 2/9 (3.51)
S55G D91S V97C | 2.66 / 2.55 / 2.22 | 5/9 (3.61)
K50F S92A F95N | 2.75 / 2.84 / 3.37 | 3/9 (4.78)
N51L S89D V97K | nd / nd / nd | 1/9 (2.73)
N52P S88L F98Q | nd / 3.68 / 4.28 | 1/9 (3.83)
A32R N33M S88E | nd / nd / nd | 0/9
N51S R90G V97W | nd / 4.75 / nd | 3/9 (3.66)
D25W N33S S93V | 3.42 / nd / 4.50 | 3/9 (3.93)
N33Y K50E F95I | 4.57 / nd / nd | 3/9 (3.83)
D25S R53C D91G | 3.28 / 4.43 / 2.87 | 3/9 (4.13)
G24Q N33M K50T | 3.63 / 3.19 / 3.06 | 4/9 (4.07)
R28I R90Q | 3.53 / nd / nd | 2/9 (3.62)
S88L D91H | 2.46 / 2.41 / 2.36 | 2/9 (3.48)
S26Q Y31I F98V | nd / nd / nd | 0/9
G24V R53S S55I | 4.35 / nd / nd | 1/9 (5.06)
K50G G94R F95L | 2.86 / 3.05 / 2.39 | 3/9 (3.81)
R90V S93W G94F | 2.17 / 2.23 / 2.21 | 1/9 (3.12)

3 of these entries, quoted again:

| changes | log10 Kd, replicates | control signals |
|---|---|---|
| Y29N S89H | 3.17 / 5.21 / 3.06 | 3/9 (3.50) |
| Y31Q G49K N51T | 3.19 / 3.47 / nd | 4/9 (4.00) |
| G24Q A32F N51Y | nd / nd / nd | 0/9 |